This is an account of results in patent US20250195682A1, “IMPROVED CELL-TARGETING BINDING MOLECULE” (priority 2018, published 2025).

The test system of the experiment is HSP27 mRNA expression in A431 tumors. The experiment can be described thus: A431 xenograft mouse tumor model, HSP27 gene silencing in tumors. The experiment is classed as in vivo, BALB/c nude mice. The procedure:
The mouse study was performed at CrownBio (China) according to standard protocols and procedures. Model: Subcutaneous A431 Human Epidermoid Carcinoma Xenograft Model in female BALB/c nude Mice. Tumor volume was monitored and tumor samples were collected for gene silencing analysis (see below)

Take “cetuximab-Cys-(SO1861-L-trifunctional linker-L-HSP27BNA)^3,7: SO1861-L-trifunctional linker-L-HSP27BNA conjugated with its third arm to cysteine residues of cetuximab”: the “reduction of HSP27 gene expression in tumors compared to vehicle control” value (1 dosing 30 mg/kg i.p., tumor samples 72h after first dosing) is listed as 25%. Moreover, under “1 dosing 30 mg/kg i.p., versus cetuximab-SO1861 or cetuximab-HSP27BNA conjugates”, the “reduction in HSP27 mRNA expression in tumors compared to single dosing of mono therapies” value is recorded as 40%. Also, the “tumor targeted gene silencing” value (A431 tumor bearing mice, compared to the controls) was “efficient tumor targeted gene silencing”.
